Biological target: human H1R (Homo sapiens, UniProt P35367)
Type: binding
Settings: benzene of 12 substituted for cyclohexane

Chains of the proteins cited; added tags and fusions are not shown. Lines headed by an entry give the natural chain unless they say otherwise; changes in a name come on top.
UniProt P35367, whole entry: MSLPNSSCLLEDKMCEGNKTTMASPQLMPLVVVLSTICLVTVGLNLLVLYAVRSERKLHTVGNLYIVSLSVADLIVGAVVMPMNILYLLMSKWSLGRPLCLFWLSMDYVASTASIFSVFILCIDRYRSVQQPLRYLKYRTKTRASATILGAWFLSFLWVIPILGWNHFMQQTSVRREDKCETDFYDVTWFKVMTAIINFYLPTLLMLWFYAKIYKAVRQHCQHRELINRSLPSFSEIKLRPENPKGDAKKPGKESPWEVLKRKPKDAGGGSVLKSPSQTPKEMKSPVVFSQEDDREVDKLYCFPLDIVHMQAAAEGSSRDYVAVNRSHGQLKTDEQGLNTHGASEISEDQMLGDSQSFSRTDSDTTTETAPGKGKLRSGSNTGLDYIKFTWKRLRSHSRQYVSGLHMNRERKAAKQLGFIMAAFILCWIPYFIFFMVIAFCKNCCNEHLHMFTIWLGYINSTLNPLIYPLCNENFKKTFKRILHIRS

Clc1ccc2c(c1)CCc1cccnc1C2=C1CCN(CC2CCCCC2)CC1 [Compound 13, 8-Chloro-11-(1-(cyclohexylmethyl)piperidin-4-ylidene)-6,11-dihydro-5H-benzo[5,6]cyclohepta[1,2-b]pyridine]
fold change in binding affinity relative to 12: < 2 fold

From publication PMC6750840 (Journal of Medicinal Chemistry, 2019)
